Assay results from patent US9260410B2, “P38 MAP kinase inhibitors” (Respivert Ltd., priority 2010, dated 2016).

The chains behind the UniProt entries cited, without tags or fusion partners. Where a name states a change or a piece, a line headed by the entry shows the natural chain unless it says otherwise.
UniProt P53778: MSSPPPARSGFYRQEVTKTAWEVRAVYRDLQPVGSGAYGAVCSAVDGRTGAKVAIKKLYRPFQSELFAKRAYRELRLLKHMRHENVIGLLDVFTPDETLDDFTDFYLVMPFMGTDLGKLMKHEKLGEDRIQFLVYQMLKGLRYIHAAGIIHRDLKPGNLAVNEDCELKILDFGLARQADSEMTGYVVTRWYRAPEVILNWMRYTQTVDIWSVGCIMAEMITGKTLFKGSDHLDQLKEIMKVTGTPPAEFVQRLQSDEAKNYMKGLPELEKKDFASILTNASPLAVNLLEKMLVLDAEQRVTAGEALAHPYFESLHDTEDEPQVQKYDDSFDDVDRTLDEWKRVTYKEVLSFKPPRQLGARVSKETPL
UniProt Q16539, whole entry, looked up: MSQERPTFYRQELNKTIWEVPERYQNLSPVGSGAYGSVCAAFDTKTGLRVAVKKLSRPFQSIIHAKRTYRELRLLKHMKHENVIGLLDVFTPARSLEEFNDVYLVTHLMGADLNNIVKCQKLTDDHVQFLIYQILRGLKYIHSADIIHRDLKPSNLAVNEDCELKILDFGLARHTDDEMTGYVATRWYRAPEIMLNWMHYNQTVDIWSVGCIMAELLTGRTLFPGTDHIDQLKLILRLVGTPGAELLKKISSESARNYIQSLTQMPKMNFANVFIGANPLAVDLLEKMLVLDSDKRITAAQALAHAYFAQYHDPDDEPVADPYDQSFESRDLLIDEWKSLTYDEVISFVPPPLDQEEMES
UniProt P12931, whole entry, looked up, species assumed: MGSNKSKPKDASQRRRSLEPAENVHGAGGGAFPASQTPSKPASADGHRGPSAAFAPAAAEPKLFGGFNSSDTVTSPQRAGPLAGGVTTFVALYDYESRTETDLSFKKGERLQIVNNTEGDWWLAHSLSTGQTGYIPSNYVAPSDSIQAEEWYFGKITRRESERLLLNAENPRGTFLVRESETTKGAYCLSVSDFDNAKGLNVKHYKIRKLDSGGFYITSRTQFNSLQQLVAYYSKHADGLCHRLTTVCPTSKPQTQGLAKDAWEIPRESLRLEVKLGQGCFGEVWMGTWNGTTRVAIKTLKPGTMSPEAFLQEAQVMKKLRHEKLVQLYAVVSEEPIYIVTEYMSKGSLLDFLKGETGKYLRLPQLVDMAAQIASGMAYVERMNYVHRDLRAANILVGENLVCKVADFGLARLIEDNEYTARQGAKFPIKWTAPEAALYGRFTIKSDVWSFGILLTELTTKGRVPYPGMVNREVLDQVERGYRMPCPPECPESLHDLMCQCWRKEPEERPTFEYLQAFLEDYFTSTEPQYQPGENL

Columns and labels:
p38 MAPKγ (MAPK12) = p38 MAPKγ (MAPK12) (Homo sapiens (Human), UniProt P53778); conditions: read-out: Enzyme Inhibition IC50 (nM) p38γ
[1] = target: p38 MAPKα isoform (MAPK14) (Homo sapiens (Human), UniProt Q16539); conditions: read-out: Enzyme Inhibition IC50 (nM) p38α
c-Src = c-Src (Homo sapiens (Human), UniProt P12931); conditions: read-out: Enzyme Inhibition IC50 (nM) c-Src; NE = No effect at a concentration of 1 ug/ml

## CC(=O)Nc1cc(Oc2ccc(NC(=O)Nc3cc(C(C)(C)C)nn3-c3ccc(C)cc3)c3ccccc23)ccn1 [Example 3, N-(4-((4-(3-(3-(tert-Butyl)-1-(p-tolyl)-1H-pyrazol-5-yl)ureido)naphthalen-1-yl)oxy)pyridin-2-yl)acetamide]
p38 MAPKγ (MAPK12)
  IC50: 146 nM
[1]
  IC50: 6.7 nM
c-Src
  IC50: < 18 nM
